This note sets out measurements from patent US20260274819A1, “ULK1 INHIBITOR, PREPARATION METHOD THEREFOR AND USE THEREOF” (DOVETREE MEDICINES UNUS, INC., priority 2023, published 2026).

Protein sequences, listed by entry. Tags and fused reporters are not part of them. Residues count along the entry.
UniProt O75385, 1-649 limits assumed: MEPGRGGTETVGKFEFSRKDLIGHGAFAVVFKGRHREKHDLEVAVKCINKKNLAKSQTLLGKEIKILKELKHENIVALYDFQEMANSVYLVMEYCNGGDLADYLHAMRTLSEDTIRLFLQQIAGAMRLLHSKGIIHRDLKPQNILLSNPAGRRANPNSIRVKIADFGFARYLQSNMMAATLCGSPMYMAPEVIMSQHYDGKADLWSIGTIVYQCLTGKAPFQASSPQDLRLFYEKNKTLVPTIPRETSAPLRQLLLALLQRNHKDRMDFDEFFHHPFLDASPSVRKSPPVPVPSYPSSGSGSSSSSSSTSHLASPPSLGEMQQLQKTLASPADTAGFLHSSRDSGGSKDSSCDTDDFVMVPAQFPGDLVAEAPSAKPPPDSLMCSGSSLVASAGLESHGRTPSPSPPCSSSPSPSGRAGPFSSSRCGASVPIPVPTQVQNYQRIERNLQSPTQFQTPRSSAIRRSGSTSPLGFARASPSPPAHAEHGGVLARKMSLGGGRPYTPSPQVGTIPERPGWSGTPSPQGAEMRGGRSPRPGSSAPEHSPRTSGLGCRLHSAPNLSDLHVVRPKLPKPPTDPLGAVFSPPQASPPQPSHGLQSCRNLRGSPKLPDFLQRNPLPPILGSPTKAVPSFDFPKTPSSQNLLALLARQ

SMILES strings stand for the structures.

In this assay the target is ULK1 (Homo sapiens, UniProt O75385). The assay can be described thus: Inhibition of ULK1 protein activity (ADP-Glo method). Particulars: read-out: ULK1 IC50, ULK1 enzyme, ATP and MBP substrate, 60 min room temperature. The procedure:
In this experiment, the inhibitory effect of a compound on the phosphorylation function of ULK1 was detected by ADP-Glo method. The inhibitory effect of the compound of the present disclosure on the ULK1 target was evaluated based on IC50.
Compound formulation: Using an ECHO (Beckman, ECHO650), the compound was serially diluted 3-fold in DMSO in a 384-well plate (PE, 6007290). A total of 10 concentration points were set, with the maximum concentration of the compound being 10 μM, and 50 nL per well. Positive control wells and negative control wells were added with 50 nL DMSO, respectively.
Reaction process: A 32 nM of ULK1 (Promega, V3521) solution was formulated, and 2.5 μL/well was transferred to the compound test wells and the negative control wells (NC). 2.5 μL/well of 1× Assay buffer was added to the positive control wells (PC). A mixed solution of 100 μM of ATP and 1.86 μM of MBP was formulated, and 2.5 μL/well was transferred to the reaction plate. After centrifugation, the reaction was initiated and incubated at room temperature for 60 min. After the reaction was completed, 5 μL/well of ADP-Glo Reagent (Promega, V9102) was added to the reaction plate. After centrifugation, the reaction was incubated at room temperature for 40 minutes. Finally, 10 μL/well of Kinase Detection Buffer was added, followed by centrifugation and incubation at room temperature for 30 min. The chemiluminescence value was read using Envision (PE, Envision2105).
Assay buffer: a reaction buffer; and Kinase Detection buffer: a detection buffer, both were taken from the ADP-Glodetection kit, purchased from Promega, model V9102. 3. Data analysis
The inhibition ratio of a compound on ULK1 activity was calculated using the following formula:
Inhibition ratio=(sample signal value−negative control signal value)/(positive control signal value−negative control signal value)×100%. The dose-effect curve was fitted using the log(inhibitor) vs. response -Variable slope of the analysis software GraphPad Prism 8, thereby affording the IC50 value of each compound for enzyme activity.
`CN1CCN(c2ccc(Nc3ncc(C(F)(F)F)c(OCCCc4ccccc4C#N)n3)c(C3CC3)c2)CC1`: the 50% inhibitory concentration (IC50) is under 100 nM.

On to `CN1CCN(c2ccc(Nc3ncc(C(F)(F)F)c(CN4CCN(C)C(=O)C4)n3)c(C3CC3)c2)CC1`, for which the IC50 was over 1000 nM.

Consider `CN1CCc2cc(Nc3ncc(C(F)(F)F)c(OCCCn4cccn4)n3)ccc2C1`, for which the IC50 was under 100 nM.

By IC50 is commonly meant the concentration at which inhibition is half-maximal.
